Values quoted from earlier work in US6605644B2, “Analgesic regimen” (Ortho-McNeil Pharmaceutical, Inc., priority 1999, dated 2003).

Sequences of proteins named here, by UniProt entry; tags and fusion partners are left off.
UniProt P35372, whole entry: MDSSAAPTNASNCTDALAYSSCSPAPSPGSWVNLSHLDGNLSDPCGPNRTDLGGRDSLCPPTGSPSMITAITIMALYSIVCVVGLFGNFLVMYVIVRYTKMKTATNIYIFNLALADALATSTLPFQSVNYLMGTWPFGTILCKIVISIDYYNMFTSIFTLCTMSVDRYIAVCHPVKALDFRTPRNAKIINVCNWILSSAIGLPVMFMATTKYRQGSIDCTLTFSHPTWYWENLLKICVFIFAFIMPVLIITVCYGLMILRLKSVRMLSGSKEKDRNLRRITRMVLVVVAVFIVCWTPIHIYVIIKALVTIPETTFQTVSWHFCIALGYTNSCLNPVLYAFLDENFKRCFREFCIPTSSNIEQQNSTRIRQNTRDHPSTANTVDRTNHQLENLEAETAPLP

Biological target: μ opioid receptors (Homo sapiens, UniProt P35372)
Details: cited from earlier work

For `CN(C)C[C@H]1CCCC[C@]1(O)c1cccc(O)c1` [mono-O-desmethyl tramadol, mono-O-desmethyltramadol], the “binding affinity to μ receptors” value is listed as “higher affinity binding”.
